Among the data in ChEMBL document CHEMBL1129336, “Ryanodine action at calcium release channels. 2. relation to substituents of the cyclohexane ring” (J Med Chem, 1996) are Relative activity values, retold here.

The assay deals with T1, Ryanodine receptor 2 (Canis lupus familiaris) (UniProt Q8WN72).
T1 sequence (whole entry): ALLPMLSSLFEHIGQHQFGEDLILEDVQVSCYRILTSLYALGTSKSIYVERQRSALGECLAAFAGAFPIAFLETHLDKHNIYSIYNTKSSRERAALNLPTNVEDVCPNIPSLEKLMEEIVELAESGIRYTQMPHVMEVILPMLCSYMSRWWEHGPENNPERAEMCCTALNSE
Nature of the assay: Displacement of [3H]ryanodine binding to ryanodine receptor(ryr) in canine left ventricular membranes. The format is cell membranes. The procedure, abridged:
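Radioligand displacement assays of [3H]ryanodine binding at the ryanodine receptor, one each on rabbit skeletal muscle, mouse brain and canine ventricle preparations. Values are means of three to five experiments, each run in duplicate; standard error is reported as percent of the mean.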
In general terms: Loss of bound radioactivity is the signal in a displacement assay; it reports binding, not function.

`CC1CCC2(O)C3(C)CC4(O)OC2(C1O)C1(O)C3(O)C(OC(=O)c2ccc[nH]2)C(O)(C(C)C)C41C` (stereo unspecified): the Relative activity was 78.
